GALK inh: galactokinase (human) inhibition; actives 0.007% (n = 270,000); Potency, µM (doses to about 57.5 µM), hits mostly inhibitors; Purified GALK, Kinase-Glo residual ATP luminescence; P51570; AID 1868
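Luminescence from leftover ATP (Ultra-Glo luciferase/luciferin) served as read-out after a 1 h room-temperature reaction of 5 nM GALK with 35 uM ATP and 100 uM galactose.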
PKM2 act: PKM2 (human) enzyme activation; Potency, µM (highest dose often 57.5 µM), actives largely listed as activators; actives 0.34% (n = 260,000); P14618; purified PKM2, Kinase-Glo ATP luminescence, activation; response scale: 0% is enzyme alone, no compound; note: nearly all actives have a fitted effect of over 55% in size
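hPK-M2, >95% pure; 0.1 mM ADP / 0.5 mM PEP final; imidazole pH7.2 buffer w/ 7 mM MgCl2, 50 mM KCl; 1 h RT; Kinase-Glo lum. Intermediate enzyme activity for dual inhibitor/activator qHTS.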
KinaseGlo FLuc: counter-screen: inhibitors of Kinase-Glo firefly luciferase; actives 0.28% (n = 200,000); Kinase-Glo luciferase, ATP luminescence, 8 min; Potency, µM (titrated, usually from 38.3 µM), hits mostly inhibitors; Q27757; note: nearly all actives have a fitted effect of over 60% in size
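Inhibition of Kinase-Glo luciferase light generation was assessed at 10 uM ATP in pH 7.2 imidazole buffer, with luminescence measured after eight minutes at ambient temperature.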
miR-21 reporter: raises the signal of a miR-21 reporter | AID 2288 | 340,000 tested, under 10 active | Potency, µM (series often up to 38.3 µM) | HeLa miR-21 FLuc reporter, luciferase, 48 h; active = well fitted rising curve with a large enough effect; inconclusive = small, poorly fitted or top-dose-only effect; inactive = no such curve, though single readings can be large or run the other way;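 further: miR-21 action dims this reporter so a rising signal means less miR-21 action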
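HeLa cells stably expressing CMV-driven firefly luciferase with a downstream miR-21 binding sequence, endogenously expressing miR-21, were treated with titrations (up to about 40uM final) for 48 hours at 37 degree Celsius. Luciferase luminescence was read after lysis.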
RXFP1 antagonist: blocks the human relaxin receptor RXFP1; HEK293-RXFP1, relaxin-stimulated cAMP HTRF, 30 min; active compounds read low; activity change, negative = inhibition, % at 57.5 µM; actives 0.59% (n = 350,000); AID 1259400;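 active = activity change of -60% or lower, but not beyond a set lower limit; inconclusive = change between -60% and -40%, or beyond the set limit; inactive = change above -40%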
RXFP1 ag: agonists of human relaxin receptor RXFP1; HEK293T-RXFP1 cAMP TR-FRET, 30 min; response scale: percent of porcine relaxin response, buffer zero; AID 2676; actives 0.3% (n = 370,000); Potency, µM (series often up to 57.5 µM), actives largely listed as activators; note: nearly all actives have a fitted effect of over 60% in size
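Agonist response is measured as cAMP accumulation in an RXFP1-transfected HEK293T line under PDE4 inhibition. Values are scaled between buffer-only and 29 nM porcine relaxin, and EC50s come from standard Hill equation fits.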
Of the large screens only hits and unclear results are named; the others gave an inactive call. Only some compounds are listed: those with a hit (about 0.92% of all), similar ones and a draw of the others. Unless noted, calls come from the whole dose curve; as a rule, active = well fitted curve in the direction sought with a large enough effect; inconclusive = small, poorly fitted or top-dose-only effect, or another doubt; inactive = no such curve, though single readings can be large; an effect the other way counts as inactive or inconclusive.

Cc1ccc(NN2C(=O)C=C(c3ccc(Cl)cc3)C2=O)cc1	RXFP1 antagonist -95.6
COc1ccc(C2=CC(=O)N(Nc3ccccc3)C2=O)cc1	RXFP1 antagonist inconclusive
COc1ccc(OC)c(-c2ccc(C(=O)O)o2)c1	none (no result: GALK inh, PKM2 act, miR-21 reporter, RXFP1 antagonist, RXFP1 ag)
O=C(Nc1ccc(-c2nc3ccccc3s2)c(O)c1)C1=COCCO1	none
O=C(Nc1cccc(-c2nc3ccccc3s2)c1)C1=COCCO1	RXFP1 antagonist -79.9
C[C@@]1(C(NC(=O)c2ccccc2)c2ccc(-c3ccccc3)cc2)C[C@H]1C1CCCCC1 (stereo partly drawn)	none (no result: GALK inh, miR-21 reporter, RXFP1 antagonist, RXFP1 ag)
CCOc1ccc(NC(=O)CN(C)S(=O)(=O)c2ccc3c(c2)CCC(=O)N3)cc1	none (no result: KinaseGlo FLuc)
CC(=O)Nc1ccc(NC(=O)CN(C)S(=O)(=O)c2ccc3c(c2)CCC(=O)N3)cc1	RXFP1 antagonist -85.8 (no result: PKM2 act, KinaseGlo FLuc)
C(=N\n1cnnc1)/c1cccn1-c1ccccc1	PKM2 act 28.2µM
COc1ccc2nc(Nc3nc(C)c(C(C)=O)s3)sc2c1	RXFP1 antagonist -70.0
Cc1ccc(-n2cccc2/C=C2/C(=N)N3C(=NC2=O)SN=C3S(C)(=O)=O)cc1Cl	none
Cc1cccc(C)c1-n1cccc1/C=C1/C(=N)N2C(=NC1=O)SN=C2S(C)(=O)=O	RXFP1 antagonist -107.8
CCCCN1C(=O)C(O)(c2c(C)[nH]c3ccccc23)c2cc(Br)ccc21 (stereo not drawn)	miR-21 reporter inconclusive, RXFP1 antagonist -103.1 (no result: GALK inh, PKM2 act, KinaseGlo FLuc)
CC(C)NC[C@@H](O)COc1ccccc1-n1cccc1	none (no result: GALK inh, PKM2 act, miR-21 reporter, RXFP1 antagonist, RXFP1 ag)
Cn1c(=O)c2c(ncn2CC(=O)NC2CCCCC2)n(C)c1=O	RXFP1 ag 15.8µM (no result: KinaseGlo FLuc)
CCOc1ccccc1OCC(=O)NNC(=O)Cn1cnc2c1c(=O)n(C)c(=O)n2C	RXFP1 ag 22.4µM
COc1cccc(/C=N/NC(=O)Cn2cnc3c2c(=O)n(C)c(=O)n3C)c1OC	RXFP1 ag 17.8µM (no result: KinaseGlo FLuc)
CC(C)NC(=O)Cn1cnc2c1c(=O)n(C)c(=O)n2C	none
COc1cc(/C=N/NC(=O)Cn2cnc3c2c(=O)n(C)c(=O)n3C)cc(OC)c1OC	none (no result: KinaseGlo FLuc)
COC(=O)c1ccccc1NC(=O)Cn1cnc2c1c(=O)n(C)c(=O)n2C	none (no result: GALK inh, PKM2 act, KinaseGlo FLuc, miR-21 reporter, RXFP1 ag)
Cn1cccc1C(=O)Nc1nc(-c2ccccn2)cs1	KinaseGlo FLuc 11.2µM
Cc1ccc(C(=O)Nc2nc(-c3ccccn3)cs2)s1	none (no result: GALK inh, PKM2 act, KinaseGlo FLuc, miR-21 reporter)
Cc1csc(NC(=O)c2cccn2C)n1	KinaseGlo FLuc inconclusive
CCc1sc(C(=O)Nc2nc(-c3ccccn3)cs2)cc1C	RXFP1 antagonist -68.8 (no result: GALK inh, PKM2 act, KinaseGlo FLuc, miR-21 reporter, RXFP1 ag)
COc1c(Cl)cccc1-c1cn2ccc(C)cc2n1	none (no result: KinaseGlo FLuc)
Nc1c(C(=O)NCC2CCCO2)sc2nc3c(c(-c4ccco4)c12)CC/C3=C\c1ccco1 (stereo not drawn)	RXFP1 antagonist -102.4
NC(=O)c1sc2nc3c(c(-c4ccco4)c2c1N)CCCC3	none (no result: KinaseGlo FLuc)
C=CCOC(=O)N[C@H](/C(C(=O)OC)=C(\C)NCc1ccccc1)c1ccc2c(c1)OCO2	none (no result: GALK inh, PKM2 act, miR-21 reporter, RXFP1 antagonist, RXFP1 ag)
O=C(C=Cc1ccccn1)c1ccccc1	RXFP1 antagonist -65.0 (no result: GALK inh, PKM2 act, KinaseGlo FLuc, miR-21 reporter, RXFP1 ag)
O=C(C=Cc1ccccn1)c1ccccc1O	none (no result: GALK inh, PKM2 act, KinaseGlo FLuc, miR-21 reporter, RXFP1 ag)
Cn1cccc1C(=O)C(=O)Nc1ccccc1	KinaseGlo FLuc 12.6µM
CCCCC/C=C\C[C@@H](O)/C=C/C=C/C=C/[C@@H](O)CCCC(=O)O	none (no result: GALK inh, PKM2 act, miR-21 reporter, RXFP1 antagonist, RXFP1 ag)
Cn1c(=O)c([N+](=O)[O-])c(Cl)c2ccccc21	RXFP1 antagonist -79.7
CCN(CC)c1c([N+](=O)[O-])c(=O)n(C)c2ccccc12	none
COC(=O)C1(C(=O)OC)C[C@@H]2CON=C2[C@H]1c1ccccc1	none (no result: GALK inh, PKM2 act, miR-21 reporter, RXFP1 antagonist, RXFP1 ag)
O=C(COC(=O)c1n[nH]c2ccccc12)Nc1ccc(Cl)cc1[N+](=O)[O-]	RXFP1 antagonist -75.3
COc1cc(C2Nc3cccc4cccc(c34)N2)ccc1O	RXFP1 antagonist -70.3 (no result: KinaseGlo FLuc)
COc1cc(C2Nc3cccc4cccc(c34)N2)cc(OC)c1OC(C)=O	RXFP1 antagonist inconclusive
O=c1oc2ccccc2c(NC2CCCCC2)c1NS(=O)(=O)c1ccc(F)c(Cl)c1	RXFP1 antagonist -63.1 (no result: PKM2 act, KinaseGlo FLuc)

Screening results (PubChem BioAssay)
